{"source": "patent US20040018193A1", "about": "(priority 2002, published 2004)", "key": {"[1]": {"system": "primary murine splenocytes", "design": "species or system Balb/c mice", "details": "mouse, in vivo"}, "Colon-26 cells": {"system": "Colon-26 cells", "design": "species or system Balb/c mice", "details": "mouse, in vivo"}}}
{"substance": "IL-2: cytokine", "values": [{"measurement": "CD25 marker expression", "setting": "[1]", "value": "significant activation"}, {"measurement": "cytolysis by NK/NKT cells", "setting": "Colon-26 cells", "value": "significant increases"}]}
